According to patent US20230151068A1:

Target: biotinylated His-Avi-TEAD (194-411) (UniProt P28347)
Assay: SPR (Biacore T100, 25 C), captured biotinylated TEAD, peptide as analyte, steady-state

Binder GSPDEYIERAKECCKKGDIQCCLRYFEESGDPNVMLICAFCP (designed binder) [peptide of SEQ ID NO: 5] has a Kd of 0.28 µM.
